# Measured values taken from publication PMC8305873, “Design and heterologous expression of a novel dimeric LL37 variant in Pichia pastoris” (Microbial Cell Factories, 2021).
# System: human red blood cells
# Experiment: Hemolytic activity assay
# Type: cell-based
# Conditions: at the highest peptide concentration (128 μM), 37 °C 1 h, 0.1% Triton X-100 = 100%
structure (smiles),measurement,value
"CC[C@H](C)[C@H](NC(=O)CN)C(=O)NCC(=O)N[C@@H](C)C(=O)N[C@H](C(=O)N[C@@H](CC(C)C)C(=O)N[C@@H](CCCCN)C(=O)N[C@H](C(=O)N[C@@H](CC(C)C)C(=O)N[C@H](C(=O)N[C@H](C(=O)NCC(=O)N[C@@H](CC(C)C)C(=O)N1CCC[C@H]1C(=O)N[C@@H](C)C(=O)N[C@@H](CC(C)C)C(=O)N[C@H](C(=O)N[C@@H](CO)C(=O)N[C@@H](Cc1c[nH]c2ccccc12)C(=O)N[C@H](C(=O)N[C@@H](CCCCN)C(=O)N[C@@H](CCCNC(=N)N)C(=O)N[C@@H](CCCCN)C(=O)N[C@@H](CCCNC(=N)N)C(=O)N[C@@H](CCC(N)=O)C(=O)N[C@@H](CCC(N)=O)C(N)=O)[C@@H](C)CC)[C@@H](C)CC)[C@@H](C)O)[C@@H](C)O)C(C)C)C(C)C [melittin, reference compound]",hemolysis (blood cells destroyed),91%
